This experiment addresses Matrix metalloproteinase-9 (Homo sapiens) (UniProt P14780).

Sequences of proteins named here, by UniProt entry; tags and fusion partners are left off. A change or cut given only in a name is not applied to a line headed by its entry.
UniProt P14780: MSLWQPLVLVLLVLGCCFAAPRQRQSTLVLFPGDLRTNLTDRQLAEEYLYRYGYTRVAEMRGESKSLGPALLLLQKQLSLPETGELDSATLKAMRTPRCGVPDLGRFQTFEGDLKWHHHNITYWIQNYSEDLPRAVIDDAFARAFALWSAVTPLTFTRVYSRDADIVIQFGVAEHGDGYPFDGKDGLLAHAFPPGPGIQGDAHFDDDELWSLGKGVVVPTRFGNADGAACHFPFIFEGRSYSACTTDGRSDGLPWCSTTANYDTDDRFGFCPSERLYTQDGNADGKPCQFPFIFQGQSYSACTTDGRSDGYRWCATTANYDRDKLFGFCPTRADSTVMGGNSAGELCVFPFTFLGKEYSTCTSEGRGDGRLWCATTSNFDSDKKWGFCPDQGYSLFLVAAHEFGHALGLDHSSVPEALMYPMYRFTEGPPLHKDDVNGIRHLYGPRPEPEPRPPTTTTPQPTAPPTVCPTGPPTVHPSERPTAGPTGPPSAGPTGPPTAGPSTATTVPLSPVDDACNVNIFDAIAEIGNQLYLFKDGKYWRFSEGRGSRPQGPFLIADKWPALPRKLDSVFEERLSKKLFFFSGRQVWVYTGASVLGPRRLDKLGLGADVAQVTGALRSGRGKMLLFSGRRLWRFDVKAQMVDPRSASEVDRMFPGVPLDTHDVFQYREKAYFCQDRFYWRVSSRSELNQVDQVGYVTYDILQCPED

IC5 data for 1 compound are collected here from ChEMBL document CHEMBL6083290, “Proline Analogues in Drug Design: Current Trends and Future Prospects” (J Med Chem, 2024).

The structures appear in SMILES notation.

In the case of `COc1ccc(C(=O)N[C@@H]2C[C@H](C(=O)NO)N(S(=O)(=O)c3ccc(Cl)c(Cl)c3)C2)c(OC)c1`, the IC5 was 0.56 µM.
